Measurements as given in patent US6506751B1, “Thiazolidinone compounds useful as chemokine inhibitors” (Millennium Pharmaceuticals, Inc., priority 1999, dated 2003).

Amino acid sequences for entries named in this document (tags omitted).
UniProt P51681, whole entry: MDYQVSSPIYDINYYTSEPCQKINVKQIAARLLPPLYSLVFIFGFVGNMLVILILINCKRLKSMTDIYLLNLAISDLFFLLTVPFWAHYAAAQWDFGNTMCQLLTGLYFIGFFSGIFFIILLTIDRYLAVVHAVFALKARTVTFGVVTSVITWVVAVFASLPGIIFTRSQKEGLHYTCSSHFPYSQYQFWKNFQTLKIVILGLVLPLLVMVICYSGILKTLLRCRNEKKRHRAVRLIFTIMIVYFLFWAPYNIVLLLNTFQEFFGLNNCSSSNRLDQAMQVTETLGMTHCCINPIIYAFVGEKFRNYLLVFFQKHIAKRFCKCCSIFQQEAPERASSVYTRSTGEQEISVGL

Molecular target: CCR-5 receptor (Homo sapiens, UniProt P51681)
Assay: 125I-gp120/sCD4/CCR-5 binding assay (CCR-5 receptor binding assay)
Details: block of 125I-gp120 (HIV-1 JR-FL)/sCD4 binding to membranes from CCR-5/L 1.2 cells; tested form: 0.67 H2O
Procedure: The ^125I-gp120/sCD4/CCR-5 binding assay is carried out similarly as described in Wu et al., Nature, 1996;384:179-183. Briefly, the envelope gp120 protein derived from HIV-1 JR-FL (Trkola et al., Nature, 1996;384:184-186), a M-tropic strain, is iodinated using solid phase lactoperoxidase to a specific activity of 20 μCi/μg. For each binding reaction (in a final volume of 100 μL binding buffer [50 mM HEPES, pH 7.5, 1 mM CaCl2, 5 mM MgCl2, and 0.5% BSA]), 25 μL (2.5 μg) of membranes prepared from CCR-5/L 1.2 cells are mixed with 25 μL (3 nM) sCD4, followed by 25 μL (0.1 nM) radiolabeled gp120 in the presence or absence of 25 μL compound dissolved in DMSO (final concentration of DMSO 0.5%). The reactions are incubated at room temperature for 45 to 60 minutes and stopped by transferring the mixture to GFB filter plates, which are then washed 3 to 4 times with binding buffer containing 0.5 M NaCl. The plates are dried and MicroScint scintillation fluid is added before counting.

## O=C1C(=Cc2cccnc2)SC(c2cccc(Cl)c2)N1CCCN1CCCCC1 (stereo not shown)
  IC50: 71 nM
